The numbers were not newly measured in patent US20220370545A1, “INTEGRIN RECEPTOR ALPHA V BETA 3 AND ITS LIGAND INVOLVED IN CHRONIC ITCH” (North Carolina State University, priority 2019, published 2022), which cites them from elsewhere.

The data set deals with T1, TSLP (Homo sapiens, UniProt Q969D9).
T1 construct: host or cells: human atopic dermatitis patients (clinical study cited)
Particulars: in vivo; cited from earlier work.

On to “tezepelumab: anti-TSLP monoclonal antibody”, for which the “effect on skin lesions of itch of human AD” value was “only modest effects”.
